Results on two substances are retold here after patent publication US20030211072A1, “Compositions with enhanced oral bioavailability” (priority 2000, published 2003).

Where two headings read alike, the source gives them in different places.

Data set [1] deals with rat everted gut sacs.
Data set [2] has as its system rat everted gut sacs. This is another data set of the same source.

With Gellan gum, in data set [1], the “Incd Ratio Total uptake” value came to 0.9, the Serosal transfer was 0.009 ng/mg of protein, the Tissue uptake is listed as 0.050 ng/mg of protein and the Total uptake is reported as 0.059 ng/mg of protein.

In the case of Xanthan gum, in data set [1], the “Incd Ratio Serosal transfer” value is given as 2.8. For the same substance, in data set [2], the “Incd Ratio Total uptake” value is reported as 2.7 and the Tissue uptake was 2.17 ± 0.23 ng/mg of protein.
